{"source": "ChEMBL document CHEMBL1148279", "about": "“Effects of bisphosphonates on the growth of Entamoeba histolytica and Plasmodium species in vitro and in vivo” (J Med Chem, 2004)", "experiment": "Therapeutic index was expressed as ratio of LD50 for KB cell line to IC50 against Plasmodium falciparum", "type": "cell-based", "conditions": "human, KB cells; read-out: TI", "data": [{"molecule": "CCn1c2ccccc2c2ccc(NC(P(=O)(O)O)P(=O)(O)O)cc21", "values": [{"measurement": "selectivity ratio", "value": 6.83}]}]}
